Test [1] deals with T1, Heat shock protein HSP 90-alpha (Homo sapiens, UniProt P07900). The experiment in a line: Binding affinity to human recombinant full length biotinylated Hsp90alpha assessed as dissociation constant by biolayer interferometric analysis.
In test [2] the target is T1, Heat shock protein HSP 90-alpha. Nature of the test: Binding affinity to human recombinant full length biotinylated Hsp90alpha assessed as association constant by biolayer interferometric analysis.

`C/C(=C\CC12OCC3CC(C=C4C(=O)c5c(O)cccc5OC431)C2=O)CO` (configuration not stated): the K in test [1] was 1.21 ×10⁻² /s; in test [2], 317 M⁻¹ s⁻¹.

For the origin of these results see ChEMBL document CHEMBL4431352, “Structure-activity relationship of Garcinia xanthones analogues: Potent Hsp90 inhibitors with cytotoxicity and antiangiogenesis activity” (Bioorg Med Chem, 2016).
